# Test results published in PubChem BioAssay AID2732 (Emory University Molecular Libraries Screening Center, 2010).
# The list shows a part of the results, in another mix than the full data. Some salts and complexes are drawn in separate pieces, as the source files them; their charges need not balance. Calls of active or inactive are those of the source.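 The calls were made as follows: active = compounds that reduced the stress-induced luciferase reporter signal by more than about 70% of percent inhibition (limit read from the data); inactive = the rest.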
# Assay: blockers of ER-stress CHOP reporter expression – cell-based, unfolded protein response, luciferase reporter, primary screen (AID 2732);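 also: 0% = tunicamycin plus vehicle and 100% = wells without tunicamycin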
# Conditions: CHO-K1 CHOP-promoter luciferase, tunicamycin-induced, 15-18 h; at 10 µM; stronger effect = higher value
row,SMILES,inhibition
1,O=C(OCCN1CCN(CCOCc2ccccc2)CC1)C(O)(c1ccccc1)c1ccccc1,inactive: 15.3%
2,O=C(OC1CN2CCC1CC2)c1ccc([N+](=O)[O-])cc1 (centres undefined),inactive: -10.8%
3,COc1ccc2c(c1O)-c1c(O)c(OC)cc3c1[C@H](C2)[N+](C)(C)CC3.O=[N+]([O-])c1cc([N+](=O)[O-])c([O-])c([N+](=O)[O-])c1[O-],inactive: -5.36%
4,CC(C)c1ccc(OP(C)(=O)Nc2ccc(SC(F)(F)F)cc2)cc1 (centres undefined),inactive: 62.2%
5,CP(=O)(Nc1ccccc1F)Oc1ccccc1 (centres undefined),inactive: 6.87%
6,CCN(CC)CCCOC(=O)C(O)(c1ccccc1)C1CCCCC1 (centres undefined),inactive: 13.4%
7,CCCCCOc1ccc(NP(C)(=O)Oc2ccc(Cl)cc2Cl)cc1 (centres undefined),active: 94%
8,CP(=O)(Nc1ccccc1)Oc1ccc(F)cc1 (centres undefined),inactive: 19.4%
9,COc1ccc(OP(C)(=O)Nc2ccc(SC(F)(F)F)cc2)cc1 (centres undefined),inactive: 30.9%
10,CCOC(=O)c1ccc(NP(C)(=O)Oc2ccc(F)cc2)cc1 (centres undefined),inactive: 5.44%
11,O=[N+]([O-])c1cc([N+](=O)[O-])c(NCC2CCS(=O)(=O)C2)c([N+](=O)[O-])c1 (centres undefined),inactive: -32.4%
12,Cc1cc(-c2cccc3ccccc23)c(C)cn1.O=[N+]([O-])c1cc([N+](=O)[O-])c(O)c([N+](=O)[O-])c1,inactive: 12%
13,O=[N+]([O-])c1ccc(OP2(=O)COCCO2)cc1 (centres undefined),inactive: -19.2%
14,COc1ccc(OP(C)(=O)Nc2cccc(Br)c2)cc1 (centres undefined),inactive: 9.29%
15,COc1ccc(NP(C)(=O)Oc2ccccc2OC)cc1 (centres undefined),inactive: 2.07%
16,CN(C)CCOC(=O)C(O)(c1ccccc1)C1CCCCC1 (centres undefined),inactive: 6.21%
17,CP(=O)(Nc1ccc2c(c1)OCCO2)Oc1ccccc1 (centres undefined),inactive: -14.1%
18,Cc1ccccc1NP(C)(=O)Nc1ccccc1C,inactive: -11.7%
19,CP(=O)(Nc1ccc(SC(F)(F)F)cc1)Oc1ccc(F)cc1 (centres undefined),inactive: 27.1%
20,CCOP(C)(=S)SCC(=O)NC(C)(CC)C(=O)O (centres undefined),inactive: -10.8%
21,CP(=O)(Nc1ccc(Cl)cc1)Oc1ccc(F)cc1 (centres undefined),inactive: -3.98%
22,COc1ccccc1OP(C)(=O)Nc1ccccc1Br (centres undefined),inactive: -16.6%

row,SMILES,inhibition
1,CC(C)(C)c1ccc(OP(C)(=O)O)cc1,inactive: 4.64%
2,CN(C)C(=O)c1c([N+](=O)[O-])cc([N+](=O)[O-])cc1[N+](=O)[O-],inactive: -72%
3,N#[O+].[C-]#N.[C-]#N.[C-]#N.[C-]#N.[C-]#N.[Fe+2].[Na+].[Na+],inactive: -4.33%
4,CCN(CC)CC(O)COC(=O)C(O)(c1ccccc1)C1CCCCC1 (centres undefined),inactive: 13.1%
5,COc1ccc(OP(C)(=O)Nc2ccc(Br)cc2)cc1 (centres undefined),inactive: 34.6%
6,CP(=O)(Oc1ccccc1)N1CCOC1=O (centres undefined),inactive: 19.5%
7,CCc1ccc(OP(C)(=O)Nc2cccnc2)cc1 (centres undefined),inactive: 28.5%
8,O=C(OCCCN1CCCC1)C(O)(c1ccccc1)C1CCCCC1 (centres undefined),inactive: 3.23%
9,CP(=O)(OC12CC3CC(CC(C3)C1)C2)OC12CC3CC(CC(C3)C1)C2,active: 79.1%
10,CCOC(=O)c1ccc(NP(C)(=O)Oc2ccc(Cl)cc2)cc1 (centres undefined),inactive: 26.2%
11,Cc1nc2ccc3ccccc3c2o1.O=[N+]([O-])c1cc([N+](=O)[O-])c(O)c([N+](=O)[O-])c1,inactive: 9.38%
12,CP(=O)(Nc1ccc(Cl)cc1Cl)Oc1ccccc1 (centres undefined),inactive: 6.53%
13,CP(=O)(OCCOc1ccccc1)OCCOc1ccccc1,inactive: 6.35%
14,Cc1cc(C)cc(OP(C)(=O)Nc2cccc(C(F)(F)F)c2)c1 (centres undefined),inactive: 46.7%
15,COc1ccc(OP(C)(=O)Nc2ccccc2Br)cc1 (centres undefined),inactive: 13.5%
16,COc1ccccc1OP(C)(=O)Nc1ccc(C)c(C)c1 (centres undefined),inactive: 4.52%
17,Cc1c(NP(C)(=O)Oc2ccc(C(C)C)cc2)c(=O)n(-c2ccccc2)n1C (centres undefined),inactive: -1.3%
18,O=[N+]([O-])c1cc([N+](=O)[O-])c(Nc2ccccn2)c([N+](=O)[O-])c1,inactive: 3.96%
19,CCc1ccc(OP(C)(=O)O)cc1,inactive: -17.2%
20,CP(=O)(Nc1ccccn1)Oc1ccccc1 (centres undefined),inactive: -18.8%
21,COc1ccccc1OP(C)(=O)Nc1ccc(C)cc1C (centres undefined),inactive: 6.57%
22,COc1ccccc1OP(C)(=O)Nc1ccc(Br)cc1 (centres undefined),inactive: 13.7%

row,SMILES,inhibition
1,CN(C)CCOC(=O)C(O)(c1ccccc1)C1CCCC1 (centres undefined),inactive: 22.4%
2,COc1ccc(OP(C)(=O)Nc2ccccn2)cc1 (centres undefined),inactive: 2.35%
3,CCN(CC)CCCOC(=O)C(O)(c1ccccc1)c1ccccc1,inactive: 0.06%
4,CCOC(=O)c1ccc(NP(C)(=O)Oc2ccccc2)cc1 (centres undefined),inactive: 22.9%
5,COc1ccccc1OP(C)(=O)Nc1ccc(C)cc1 (centres undefined),inactive: -35.9%
6,Cc1ccc(NP(C)(=O)Oc2ccccc2)c(C)c1 (centres undefined),inactive: 22.7%
7,COc1ccccc1OP(C)(=O)Nc1cc(Cl)ccc1C (centres undefined),inactive: -14.9%
8,COc1ccc(OP(C)(=O)Nc2cccc(F)c2)cc1 (centres undefined),inactive: -5.82%
9,Cc1cc(C)cc(OP(C)(N)=O)c1 (centres undefined),inactive: -1.62%
10,CC(C)(C)c1ccc(OP(C)(=O)Nc2ccc(SC(F)(F)F)cc2)cc1 (centres undefined),inactive: 63.6%
11,Cc1cccc(C)c1OP(C)(N)=O (centres undefined),inactive: -8.54%
12,O=[N+]([O-])c1ccc2c(c1)C=Nc1ccccc1O2,inactive: -35.9%
13,CP(=S)(Nn1cnnc1)Oc1ccccc1 (centres undefined),inactive: -11.5%
14,COc1ccccc1OP(C)(=O)Nc1ccccc1 (centres undefined),inactive: -24.1%
15,CP(=O)(Nc1ccccc1Br)Oc1ccccc1 (centres undefined),inactive: -2.85%
16,CCOP(C)(=S)SCC(=O)NC(C)C(=O)O (centres undefined),inactive: -19%
17,CCOC(=O)c1ccc(NP(C)(=O)Oc2ccc(OC)cc2)cc1 (centres undefined),inactive: 8.7%
18,CP(=O)(Nc1ccccn1)Oc1ccc(Cl)cc1 (centres undefined),inactive: 20.7%
19,CP(=O)(Nc1ccc(SC(F)(F)F)cc1)Oc1ccc(Cl)cc1 (centres undefined),active: 71.1%
20,Cc1cccc(C)c1OP(C)(=O)Nc1ccc(SC(F)(F)F)cc1 (centres undefined),active: 76.1%
